Molecules are shown by their SMILES. pEC50: −log10 of the molar value.

The chains behind the UniProt entries cited, without tags or fusion partners. Where a name states a change or a piece, a line headed by the entry shows the natural chain unless it says otherwise.
UniProt P11229: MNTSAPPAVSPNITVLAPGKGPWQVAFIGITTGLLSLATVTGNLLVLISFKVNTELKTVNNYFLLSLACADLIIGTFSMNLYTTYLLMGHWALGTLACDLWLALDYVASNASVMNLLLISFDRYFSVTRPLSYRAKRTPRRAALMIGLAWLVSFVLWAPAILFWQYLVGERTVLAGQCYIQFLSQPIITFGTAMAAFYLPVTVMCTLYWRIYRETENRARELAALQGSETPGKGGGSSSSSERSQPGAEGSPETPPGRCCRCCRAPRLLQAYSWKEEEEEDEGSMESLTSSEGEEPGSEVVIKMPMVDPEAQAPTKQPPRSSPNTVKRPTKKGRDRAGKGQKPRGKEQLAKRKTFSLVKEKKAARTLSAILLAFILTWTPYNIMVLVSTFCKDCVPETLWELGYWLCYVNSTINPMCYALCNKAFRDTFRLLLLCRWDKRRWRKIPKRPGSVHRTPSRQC
UniProt P08172, whole entry: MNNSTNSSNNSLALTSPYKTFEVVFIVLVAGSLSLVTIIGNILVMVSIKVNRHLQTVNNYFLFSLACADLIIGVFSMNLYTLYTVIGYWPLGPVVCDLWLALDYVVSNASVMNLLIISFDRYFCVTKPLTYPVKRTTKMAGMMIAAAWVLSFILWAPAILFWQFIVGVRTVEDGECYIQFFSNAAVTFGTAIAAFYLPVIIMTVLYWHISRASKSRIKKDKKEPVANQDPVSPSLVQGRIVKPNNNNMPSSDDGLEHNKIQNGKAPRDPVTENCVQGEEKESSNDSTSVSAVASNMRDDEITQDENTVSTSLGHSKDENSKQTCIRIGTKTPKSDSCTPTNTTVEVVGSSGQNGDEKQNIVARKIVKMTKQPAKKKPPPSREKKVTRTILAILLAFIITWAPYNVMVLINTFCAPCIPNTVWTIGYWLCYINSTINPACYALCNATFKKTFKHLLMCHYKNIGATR

The target in one experiment is T1, human M1 mAChR (Homo sapiens, UniProt P11229).
T1 construct: expressed in transfected cells
In words: Whole-cell functional agonist activity, FLIPR Ca2+ release, U2OS-based human M1 mAChR stable cell line. As to conditions: top of curve, % activity vs MAX control ligand. An excerpt:
(§1) Whole-cell functional agonist activity in cells expressing recombinant human muscarinic receptor subtypes.
(§2) ThermoFisher's FLIPR™ (Fluorescence Imaging Plate Reader) was used to quantify Ca^2+ release, a functional effect associated with Gaq-coupled M1 and M5 mAChRs. CisBio's phospho-ERK (pERK) Thr202/Tyr204 was used to evaluate Gai/o-coupled M2 and M4 mAChRs responses.
One day before the assay, M1, M3, and M5 cells were thawed out and plated at 10,000 cells/well into black-walled, clear-bottom, Poly-D-lysine coated 384-well microplates and incubated at 37° C. and 5% CO2 in MEME+10% FBS+1× penicillin/streptomycin/glutamine, for the M1 and M3 cell lines and F-12+10% FBS+1× penicillin/streptomycin/glutamine for the M5 cell line. […] The M1 and M5 responses were analyzed using the CBIS data analysis suite (ChemInnovation, CA).
(§3) Percentage activity was calculated using the following formula: % Activity=100%×(mean RFU of test sample mean RFU of vehicle control)/(mean MAX RFU control ligand mean RFU of vehicle control) where RFU is relative fluorescence unit. The M2 and the M4 cells were thawed out one day before the assay and plated at 2,000 and 1,000 cells per well, respectively, in […] of DMEM/F12+10% FBS in ProxiPlate 384-well white-walled, white-bottom tissue culture-treated plates and incubated at 37° C. and 5% CO2 overnight. […]

Another experiment addresses T2, human M2 mAChR (Homo sapiens, UniProt P08172).
T2 construct: expressed in transfected cells
In words: Whole-cell functional agonist activity, phospho-ERK (pERK), CHOK1-based human M2 mAChR stable cell line. Conditions: CHOK1 human M2 cells. How it is done:
as §1, §2
as §3, with “overnight. Before the assay, cells were serum-starved at 37° C. in 5% CO2 for 4 hours by replacing culture media with […] of F12 media with 8 mM HEPES.” for “overnight.”
Compound addition was carried out by adding 3× compound solution in […] of media with 0.3% DMSO (made from a 10 mM compound stock solution in 100% DMSO) for 5 minutes before the reaction was terminated by adding […] lysis and blocking solution. […] The plates were then read on laser Pherastar using the TR-FRET protocol.

A word on the Emax: it is the maximal effect, on the per cent scale that the assay sets. What is called pEC50 is the negative decadic logarithm of the EC50, by convention in mol/L. For the compound `CCCCCCOc1nsnc1C1=CCCN(C)C1` [Xanomeline, 3-(hexyloxy)-4-(1-methyl-1,2,5,6-tetrahydropyridin-3-yl)-1,2,5-thiadiazole, reference compound], the Emax at human M1 mAChR is 91%. Besides, the pEC50 on human M2 mAChR is less than 7.47.

The record behind these values is patent US11534434B2 (Karuna Therapeutics, Inc., priority 2019, dated 2022).
